This data set has as its system A2780/dx (Pgp+). It is filed as cell-based. As to conditions: after 72 hours; concentration that inhibits cell growth by 50% compared with non treated cells; read-out: IC50 (nM) ± S.E. A2780/dx (Pgp+). On the procedure: The activity of the compounds of formula I was evaluated on a large number of tumour cells expressing different resistance.
Cytotoxic activity was evaluated according to the procedure described by M. C.
As for “3,5-Benzenedicarboxylic acid bis-(N-deacetylthiocolchicine)amide [E.g. 3]”, the IC50 was found to be 922 ± 164 nM.
With “N-Deacetylthiocolchicine 1,4-phenylenediamine bis-urea [E.g. 4]”, the IC50 was determined as 3840 ± 224 nM.
Then “trans-1,4-Cyclohexanedicarboxylic acid bis-(N-deacetylthiocolchicine)amide [E.g. 2]”, with 1270 ± 382 nM.

Values taken from patent publication US7582639B2, “N-deacetylthiocolchicine derivatives, their use and pharmaceutical formulations containing them” (priority 2004, dated 2009).
